Measurements from ChEMBL document CHEMBL5620418.

The chains behind the UniProt entries cited, without tags or fusion partners.
UniProt P35372, whole entry: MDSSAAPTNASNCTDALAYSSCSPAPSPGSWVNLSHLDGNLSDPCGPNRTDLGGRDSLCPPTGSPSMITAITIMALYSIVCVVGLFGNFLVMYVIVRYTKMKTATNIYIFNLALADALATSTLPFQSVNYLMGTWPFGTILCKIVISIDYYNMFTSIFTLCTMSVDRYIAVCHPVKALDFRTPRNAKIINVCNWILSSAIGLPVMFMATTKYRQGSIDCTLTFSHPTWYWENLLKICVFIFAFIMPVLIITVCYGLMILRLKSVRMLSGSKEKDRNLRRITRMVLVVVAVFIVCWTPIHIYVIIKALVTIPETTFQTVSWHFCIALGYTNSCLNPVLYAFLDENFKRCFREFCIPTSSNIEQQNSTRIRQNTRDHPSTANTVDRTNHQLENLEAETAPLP
UniProt P41145, whole entry: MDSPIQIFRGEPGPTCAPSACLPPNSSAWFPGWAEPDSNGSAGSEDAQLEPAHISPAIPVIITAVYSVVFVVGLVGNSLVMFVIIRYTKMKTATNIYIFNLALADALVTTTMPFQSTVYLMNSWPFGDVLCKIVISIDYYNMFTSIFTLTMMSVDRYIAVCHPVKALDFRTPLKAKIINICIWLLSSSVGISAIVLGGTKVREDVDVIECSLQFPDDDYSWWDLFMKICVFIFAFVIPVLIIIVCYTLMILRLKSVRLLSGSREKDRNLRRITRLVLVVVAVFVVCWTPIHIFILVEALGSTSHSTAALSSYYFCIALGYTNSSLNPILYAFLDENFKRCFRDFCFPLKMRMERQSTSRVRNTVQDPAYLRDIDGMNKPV
UniProt P41143, whole entry: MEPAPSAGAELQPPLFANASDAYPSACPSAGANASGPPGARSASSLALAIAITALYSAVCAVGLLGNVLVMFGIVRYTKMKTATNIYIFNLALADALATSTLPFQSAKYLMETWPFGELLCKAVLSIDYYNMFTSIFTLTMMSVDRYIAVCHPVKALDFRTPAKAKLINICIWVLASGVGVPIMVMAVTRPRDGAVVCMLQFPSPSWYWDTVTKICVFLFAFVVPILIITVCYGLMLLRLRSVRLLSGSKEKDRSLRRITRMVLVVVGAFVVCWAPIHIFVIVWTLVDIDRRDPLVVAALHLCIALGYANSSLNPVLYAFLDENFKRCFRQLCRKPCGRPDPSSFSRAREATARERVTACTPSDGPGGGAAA

Tests used:
Mu-type opioid receptor [1] = biological target: T1, Mu-type opioid receptor (Homo sapiens, UniProt P35372); assay: Displacement of [3H]DAMGO from human cloned mu-opioid receptor expressed in CHO cell membrane by liquid scintillation counting
[2] = biological target: T2, Kappa-type opioid receptor (Homo sapiens, UniProt P41145); assay: Displacement of [3H]U69593 from human cloned kappa-opioid receptor expressed in CHO cell membrane by liquid scintillation counting
Mu-type opioid receptor [3] = biological target: T1, Mu-type opioid receptor; settings: cho
[4] = biological target: T3, Delta-type opioid receptor (Homo sapiens, UniProt P41143); assay: Displacement of [3H]DPDPE from human cloned delta-opioid receptor expressed in CHO cell membrane by liquid scintillation counting
Mu-type opioid receptor [5] = biological target: T1, Mu-type opioid receptor; assay: Agonist activity at human mu opioid receptor expressed in CHO cell membrane assessed as stimulation of [35S]GTPgammaS binding incubated for 1 hr by liquid scintillation counting analysis
[6] = biological target: T2, Kappa-type opioid receptor; assay: Agonist activity at human kappa opioid receptor expressed in CHO cell membrane assessed as stimulation of [35S]GTPgammaS binding incubated for 1 hr by liquid scintillation counting analysis
[7] = biological target: T3, Delta-type opioid receptor; assay: Agonist activity at human delta opioid receptor expressed in CHO cell membrane assessed as stimulation of [35S]GTPgammaS binding incubated for 1 hr by liquid scintillation counting analysis

SMILES	Ki (Mu-type opioid receptor [1])	Ki [2]	EC50 (Mu-type opioid receptor [3])	Ki [4]	EC50 (Mu-type opioid receptor [5])	EC50 [6]	EC50 [7]
COc1ccc2c3c1O[C@H]1[C@@]4(OC)C=C[C@@]5(C[C@@H]4C(=O)c4ccc(NC(=O)c6ccccc6)cc4)[C@@H](C2)N(CC2CC2)CC[C@]315	32.6 nM	> 10000 nM	9 nM	678 nM			
COc1ccc2c3c1O[C@H]1[C@@]4(OC)C=C[C@@]5(C[C@@H]4C(=O)c4ccc(N)cc4)[C@@H](C2)N(CC2CC2)CC[C@]315	40.4 nM	14.6 nM		> 5000 nM	29.7 nM	28.7 nM	1570 nM
